US20240000948A1, “METHODS FOR TREATING EYE DISEASES USING LIPID BINDING PROTEIN-BASED COMPLEXES” (ABIONYX PHARMA SA, priority 2020, published 2024)

Assay: CER-001 as carrier for ophthalmic drugs: appearance of samples after thermal cycling
Type: physicochemical
Conditions: dexamethasone palmitate 1 mg/ml in PBS; five cycles 37° C. to 55° C.; FIG. 1C
Procedure: (§1) A solution of CER-001 was mixed with azithromycin to provide a final azithromycin concentration of 10 mg/ml and subjected to five heating and cooling cycles from 37° C. to 55° C. to promote complexation of azithromycin to CER-001. For controls, a sample of CER-001 without added azithromycin and a sample of azithromycin at a concentration of 10 mg/ml in phosphate buffered saline (PBS) were similarly subjected to five heating and cooling cycles from 37° C. to 55° C.
as §1, with “spironolactone” for “azithromycin”, “1.5” for “10”
A solution of CER-001 was mixed with cyclosporine to provide a final cyclosporine concentration of 1 mg/ml and subjected to five heating and cooling cycles from 37° C. to 55° C. to promote complexation of cyclosporine to CER-001. […]

Substance: dexamethasone palmitate
- appearance of sample following the heating and cooling cycles: contained a lipid film on the glass above the meniscus and was very cloudy
